# Measured values from patent US7557144B1, “Modulation of protein expression using carbocyclic aryl alkenoic acid derivatives” (The Johns Hopkins University, priority 2000, dated 2009).
# Tested on: Hsc70
# Test: Hsc70 immunoblot of IB3-1 whole cell lysates
# Settings: IB3-1 cells, 37° C., 2 days; butyrate 1 mM, glycerol 1 M, phenylacetate 1 mM, G418 0.2 mg/ml
smiles,measurement,value
"CCCC(=O)O [butyrate, butyric acid]",Hsc70 immunoreactivity,reduction
